# From ChEMBL document CHEMBL5715955, “Inhibition of Human Class I vs Class III Phosphatidylinositol 3'-Kinases” (Biochemistry, 2017)
# Chains of the proteins cited; added tags and fusions are not shown. Lines headed by an entry give the natural chain unless they say otherwise; changes in a name come on top.
# UniProt P48736: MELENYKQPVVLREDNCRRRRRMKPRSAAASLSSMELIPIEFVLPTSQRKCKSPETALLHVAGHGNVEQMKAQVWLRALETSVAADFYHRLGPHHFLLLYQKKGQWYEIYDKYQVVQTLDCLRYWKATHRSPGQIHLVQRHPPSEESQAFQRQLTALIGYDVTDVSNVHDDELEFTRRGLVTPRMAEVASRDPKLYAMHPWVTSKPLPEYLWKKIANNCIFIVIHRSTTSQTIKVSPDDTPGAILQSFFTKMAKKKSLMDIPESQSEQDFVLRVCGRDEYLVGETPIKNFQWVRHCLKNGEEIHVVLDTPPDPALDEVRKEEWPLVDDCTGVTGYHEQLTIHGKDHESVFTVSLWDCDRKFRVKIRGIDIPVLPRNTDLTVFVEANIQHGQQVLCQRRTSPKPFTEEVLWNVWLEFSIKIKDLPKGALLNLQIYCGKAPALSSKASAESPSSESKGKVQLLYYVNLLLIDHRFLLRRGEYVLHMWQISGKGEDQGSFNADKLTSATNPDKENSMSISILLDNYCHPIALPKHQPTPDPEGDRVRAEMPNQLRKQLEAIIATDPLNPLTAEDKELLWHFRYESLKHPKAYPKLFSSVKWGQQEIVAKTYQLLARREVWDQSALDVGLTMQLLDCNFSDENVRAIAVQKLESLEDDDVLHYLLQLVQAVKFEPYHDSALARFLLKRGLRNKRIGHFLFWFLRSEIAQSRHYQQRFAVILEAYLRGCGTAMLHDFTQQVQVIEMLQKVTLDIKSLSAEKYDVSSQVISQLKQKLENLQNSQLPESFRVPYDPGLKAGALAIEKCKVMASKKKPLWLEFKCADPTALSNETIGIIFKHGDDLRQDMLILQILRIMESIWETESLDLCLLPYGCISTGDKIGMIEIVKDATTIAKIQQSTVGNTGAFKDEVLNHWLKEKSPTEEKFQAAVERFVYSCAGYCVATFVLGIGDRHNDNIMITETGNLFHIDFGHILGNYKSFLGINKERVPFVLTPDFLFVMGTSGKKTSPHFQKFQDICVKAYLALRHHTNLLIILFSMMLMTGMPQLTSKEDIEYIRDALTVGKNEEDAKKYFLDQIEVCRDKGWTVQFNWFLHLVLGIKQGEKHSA
# Biological target: Phosphatidylinositol 4,5-bisphosphate 3-kinase catalytic subunit gamma isoform (Homo sapiens, UniProt P48736)
# Experiment: Inhibition of PI3K gamma (unknown origin) by PIP3 production detection based fluorescence assay
smiles,measurement,value
CC(C)n1nc(-c2ccc3oc(N)nc3c2)c2c(N)ncnc21 [SAPANISERTIB],EC50,221 nM
